Tested on: MC38 cells
Conditions: experimentally determined, 72 h

Structure (SMILES): O=C1[O][Pt]2([NH][C@@H]3CCCC[C@H]3[NH]2)[O]C1=O [OXA, oxaliplatin]
- non-cytotoxic concentration range: 0.001 to 0.03 µM

Reference: patent publication US20260266828A1, “BIOMARKERS FOR PREDICTING CANCER TREATMENT EFFICACY” (Arcus Biosciences, Inc., priority 2023, published 2026)
